From PubChem BioAssay AID651589 (Sanford-Burnham Center for Chemical Genomics, 2012) come the findings set out here.

Only a part is listed here, and it is no random draw. The source made the active and inactive calls.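 How the source made its calls: active means mean inhibition of the reporter signal across four replicates at the single tested dose of 50% or more; inactive means the rest.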

The test is described as follows: HIF-1a luciferase reporter signal reduction – MiaPaCa-2 cells, single concentration, counter-screen for HIF-2a inhibitor project, confirmation (AID 651589). To be noted: MiaPaCa-2 HIF-1a luciferase reporter, desferoxamine, overnight; at 18.8 µM; active compounds read high. (Reporter assays use an easily measured gene product as a stand-in for the process of interest.)
Usually inhibition stands for the relative decrease from the control value, in per cent. Turning to `CN(C)C(=O)c1cc([N+](=O)[O-])cc2c1-c1c(cc([N+](=O)[O-])cc1[N+](=O)[O-])C2=O`, the inhibition is active: 104%.
